Laboratory results: patent US20230310478A1, “METHODS AND COMPOSITIONS FOR THE TREATMENT OF PULMONARY HYPERTENSION AND CANCER” (Ann and Robert H. Lurie Children's Hospital of Chicago, priority 2020, published 2023)
Counter-ions that a name gives are not always drawn.

Legend:
PDGF-B = assay: quantitative RT-PCR of PH-causing genes in DMOG-treated HLMVECs: PDGF-B; format: cell-based, human; details: 20 & 40 uM, 24 h, mean±SD
Endothelin-1 = assay: quantitative RT-PCR of PH-causing genes in DMOG-treated HLMVECs: Endothelin-1; format: cell-based, human; details: 20 & 40 uM, 24 h, mean±SD
SDF1 = assay: quantitative RT-PCR of PH-causing genes in DMOG-treated HLMVECs: SDF1; details: 20 & 40 uM, 24 h, mean±SD
HIF-2α = assay: HRE luciferase activity in DMOG-treated HLMVECs; format: cell-based, human; details: DMOG 1 mM, quinidine 20 μM, 24 hours
HIF-2α target genes = assay: quantitative RT-PCR of HIF-2α target genes in PHD2-deficient HLMVECs; format: cell-based, human; details: siPHD2-transfected HLMVECs, quinidine 20 μM, 24 hours

SMILES | PDGF-B expression (control = 1.00) (PDGF-B; DMOG alone 2.05 ± 0.33, hydrochloride) | PDGF-B expression (control = 1.00) (PDGF-B; DMOG alone 2.05 ± 0.33, listed as irinotecan, hydrochloride) | Endothelin-1 expression (control = 1.00) (Endothelin-1; DMOG alone 2.36 ± 0.23, hydrochloride) | Endothelin-1 expression (control = 1.00) (Endothelin-1; DMOG alone 2.36 ± 0.23, listed as irinotecan, hydrochloride) | SDF1 expression (control = 1.00) (SDF1; DMOG alone 1.80 ± 0.06, hydrochloride) | SDF1 expression (control = 1.00) (SDF1; DMOG alone 1.80 ± 0.06, listed as irinotecan, hydrochloride) | HRE luciferase activity (HIF-2α) | HRE luciferase activity (HIF-2α; listed as quinidine) | expression of HIF-2α target genes (HIF-2α target genes)
CCc1c2c(nc3ccc(OC(=O)N4CCC(N5CCCCC5)CC4)cc13)-c1cc3c(c(=O)n1C2)COC(=O)[C@]3(O)CC [Irinotecan, [(19S)-10,19-diethyl-19-hydroxy-14,18-dioxo-17-oxa-3,13-diazapentacyclo[11.8.0.0^2,11.0^4,9.0^15,20]henicosa-1(21),2,4(9),5,7,10,15(20)-heptaen-7-yl] 4-piperidin-1-ylpiperidine-1-carboxylate; hydrochloride] | 1.16 ± 0.15 | inhibited | 0.73 ± 0.46 | inhibited | 0.64 ± 0.10 | inhibited |  |  | 
C=C[C@H]1C[N@]2CC[C@H]1C[C@@H]2[C@@H](O)c1ccnc2ccc(OC)cc12 [Quinidine, (2-Ethenyl-4-azabicyclo[2.2.2]oct-5-yl)-(6-methoxyquinolin-4-yl)-methanol] |  |  |  |  |  |  | suppression of HRE activity | inhibited HRE/luciferase activity | inhibited expression of HIF-2α target genes
